Chains of the proteins cited; added tags and fusions are not shown.
UniProt P29274, whole entry Q89D: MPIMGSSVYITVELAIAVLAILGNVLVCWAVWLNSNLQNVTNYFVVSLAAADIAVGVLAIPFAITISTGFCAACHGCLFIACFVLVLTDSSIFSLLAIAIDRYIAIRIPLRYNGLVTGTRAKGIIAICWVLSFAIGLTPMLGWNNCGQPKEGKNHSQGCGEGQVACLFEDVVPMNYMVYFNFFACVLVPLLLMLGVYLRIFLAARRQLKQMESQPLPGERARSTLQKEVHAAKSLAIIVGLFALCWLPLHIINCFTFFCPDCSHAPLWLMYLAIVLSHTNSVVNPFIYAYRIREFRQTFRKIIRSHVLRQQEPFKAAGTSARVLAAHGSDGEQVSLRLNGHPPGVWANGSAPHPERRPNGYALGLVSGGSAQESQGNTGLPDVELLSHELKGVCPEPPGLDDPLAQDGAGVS
UniProt P29274, whole entry T88E: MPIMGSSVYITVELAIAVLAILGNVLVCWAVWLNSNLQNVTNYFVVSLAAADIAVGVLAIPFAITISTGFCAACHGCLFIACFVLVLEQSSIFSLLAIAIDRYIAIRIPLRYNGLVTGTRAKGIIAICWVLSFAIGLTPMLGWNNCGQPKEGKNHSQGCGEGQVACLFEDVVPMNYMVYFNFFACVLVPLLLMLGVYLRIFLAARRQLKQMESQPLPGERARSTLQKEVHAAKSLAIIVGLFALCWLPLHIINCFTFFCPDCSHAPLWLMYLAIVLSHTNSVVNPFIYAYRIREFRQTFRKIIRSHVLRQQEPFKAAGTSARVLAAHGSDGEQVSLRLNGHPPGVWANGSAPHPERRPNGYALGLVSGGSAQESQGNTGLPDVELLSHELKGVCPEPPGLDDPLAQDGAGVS
UniProt P29274, whole entry H278E: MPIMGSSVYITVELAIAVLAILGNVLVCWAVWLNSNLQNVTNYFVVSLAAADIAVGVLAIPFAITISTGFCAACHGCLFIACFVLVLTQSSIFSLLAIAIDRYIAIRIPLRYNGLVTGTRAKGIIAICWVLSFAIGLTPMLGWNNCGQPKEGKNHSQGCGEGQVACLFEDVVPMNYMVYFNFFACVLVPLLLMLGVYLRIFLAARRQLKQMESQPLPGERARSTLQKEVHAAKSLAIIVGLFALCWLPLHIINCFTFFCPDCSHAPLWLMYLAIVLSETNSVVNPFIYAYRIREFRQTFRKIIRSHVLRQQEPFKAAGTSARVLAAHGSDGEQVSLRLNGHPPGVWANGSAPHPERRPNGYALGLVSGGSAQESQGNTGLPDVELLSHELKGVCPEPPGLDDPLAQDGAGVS
UniProt P29274, whole entry T88D: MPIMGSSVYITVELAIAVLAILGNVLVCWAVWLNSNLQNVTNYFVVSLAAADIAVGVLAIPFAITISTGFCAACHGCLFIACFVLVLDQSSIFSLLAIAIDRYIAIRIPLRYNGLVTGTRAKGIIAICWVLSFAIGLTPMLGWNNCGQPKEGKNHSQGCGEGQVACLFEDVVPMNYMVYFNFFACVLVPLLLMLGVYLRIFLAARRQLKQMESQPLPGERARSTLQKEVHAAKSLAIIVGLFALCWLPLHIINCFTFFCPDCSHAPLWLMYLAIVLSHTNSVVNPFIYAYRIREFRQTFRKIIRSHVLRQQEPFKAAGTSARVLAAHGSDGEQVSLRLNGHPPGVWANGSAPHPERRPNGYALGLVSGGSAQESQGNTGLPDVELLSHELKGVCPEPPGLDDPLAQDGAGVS
UniProt P29274, whole entry H278D: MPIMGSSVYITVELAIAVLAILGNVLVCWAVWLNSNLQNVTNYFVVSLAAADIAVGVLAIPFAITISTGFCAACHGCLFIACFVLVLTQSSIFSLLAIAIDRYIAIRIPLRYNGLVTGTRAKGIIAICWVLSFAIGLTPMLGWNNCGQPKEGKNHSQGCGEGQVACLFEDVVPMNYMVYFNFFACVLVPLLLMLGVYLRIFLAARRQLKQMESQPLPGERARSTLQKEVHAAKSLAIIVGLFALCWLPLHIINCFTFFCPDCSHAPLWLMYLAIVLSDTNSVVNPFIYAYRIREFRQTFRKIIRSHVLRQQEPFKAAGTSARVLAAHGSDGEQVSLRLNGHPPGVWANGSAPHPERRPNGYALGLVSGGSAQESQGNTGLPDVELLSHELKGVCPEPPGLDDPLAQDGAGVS
UniProt P29274, whole entry S277E: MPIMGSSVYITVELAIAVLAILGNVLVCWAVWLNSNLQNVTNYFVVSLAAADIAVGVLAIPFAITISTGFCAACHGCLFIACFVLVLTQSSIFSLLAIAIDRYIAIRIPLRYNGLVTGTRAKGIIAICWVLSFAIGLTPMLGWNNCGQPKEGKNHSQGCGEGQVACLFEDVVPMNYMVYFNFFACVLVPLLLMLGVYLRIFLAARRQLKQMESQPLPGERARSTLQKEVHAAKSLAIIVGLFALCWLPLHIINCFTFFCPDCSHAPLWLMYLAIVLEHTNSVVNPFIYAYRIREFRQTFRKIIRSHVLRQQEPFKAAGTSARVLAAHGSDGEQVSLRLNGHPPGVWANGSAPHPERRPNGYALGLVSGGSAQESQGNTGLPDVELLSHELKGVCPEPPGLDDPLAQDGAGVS

According to ChEMBL document CHEMBL1144939, “Modeling the adenosine receptors: comparison of the binding domains of A2A agonists and antagonists” (J Med Chem, 2003):

Experiments:
[1] = molecular target: Adenosine receptor A2a (Homo sapiens, UniProt P29274, Q89D); assay: biochemical
[2] = molecular target: Adenosine receptor A2a (Homo sapiens, UniProt P29274, T88E); assay: Binding affinity against T88E human adenosine A2A receptor expressed in CHO cells using [3H]- ZM-241385; type: cell-based
[3] = molecular target: Adenosine receptor A2a (Homo sapiens, UniProt P29274, H278E); assay: biochemical
[4] = molecular target: Adenosine receptor A2a (Homo sapiens, UniProt P29274); assay: biochemical
[5] = molecular target: Adenosine receptor A2a (Homo sapiens, UniProt P29274, T88D); assay: Binding affinity against T88D human adenosine A2A receptor expressed in CHO cells using [3H]- ZM-241385; type: cell-based
[6] = molecular target: Adenosine receptor A2a (Homo sapiens, UniProt P29274, H278D); assay: biochemical
[7] = molecular target: Adenosine receptor A2a (Homo sapiens, UniProt P29274, S277E); assay: biochemical

## NCCNC(=O)[C@H]1O[C@@H](n2cnc3c(N)ncnc32)[C@H](O)[C@@H]1O
[1]
  Ki: 3.6 µM
[2]
  Ki: 57 µM
[3]
  Ki: 72 µM
[4]
  Ki: 0.0461 µM
[5]
  Ki: 4.4 µM
[6]
  Ki: 121 µM
[7]
  Ki: 41 µM
